Test results: US20100104567A1, “PHARMACEUTICAL COMPOSITION” (KYOWA HAKKO KIRIN CO., LTD., priority 2007, published 2010)

Tested on: human pancreatic cancer MIA-Paca-2 cells
Assay: Antitumor effect of Flt-3 inhibitor and cetuximab in mouse models transplanted with MIA-Paca-2 cells
Format: in vivo
Details: day 24; scid mice, s.c. MIA-PaCa-2; Compound 9 50 mg/kg oral twice a day x 5 days; cetuximab 2.5 mg/head i.v. days 0, 3, 6, 9, 12
Protocol: C. Cetuximab alone group: 2.5 mg/head (once a day/days zero, 3, 6, 9, and 12 after the start of administration)

For Cetuximab: anti-EGFR antibodies, the “T/C (V/V0 of group divided by V/V0 of negative control group)” value was 0.53.
